{"sequences": {"note": "The chains behind the UniProt entries cited, without tags or fusion partners.", "UniProt P21728, whole entry, looked up": "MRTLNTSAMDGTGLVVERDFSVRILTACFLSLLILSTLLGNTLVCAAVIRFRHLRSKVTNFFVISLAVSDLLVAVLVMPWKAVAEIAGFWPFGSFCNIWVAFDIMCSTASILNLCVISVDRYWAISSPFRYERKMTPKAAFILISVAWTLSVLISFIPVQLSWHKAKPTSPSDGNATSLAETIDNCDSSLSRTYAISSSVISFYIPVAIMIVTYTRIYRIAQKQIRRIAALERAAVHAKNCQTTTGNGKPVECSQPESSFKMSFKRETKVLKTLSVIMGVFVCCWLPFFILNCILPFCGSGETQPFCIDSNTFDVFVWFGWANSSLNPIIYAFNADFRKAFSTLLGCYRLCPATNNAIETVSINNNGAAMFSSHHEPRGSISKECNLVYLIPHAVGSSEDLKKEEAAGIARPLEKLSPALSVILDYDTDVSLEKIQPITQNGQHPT"}, "source": "PubChem BioAssay AID504651", "about": "(National Center for Advancing Translational Sciences (NCATS), 2011)", "note": "The list shows a part of the results, in another mix than the full data. Calls of active or inactive are those of the source. Cut-off read from the data, not from the text of the source: active = potentiation above about 30%; inactive = the rest."}
{"molecular_target": "D(1A) dopamine receptor (Homo sapiens) (UniProt P21728)", "experiment": "Potentiators of Human D1 Dopamine Receptor: qHTS; note: 0% is about no effect", "details": "HEK293 TREx D1 cells, calcium flux, dopamine EC20 potentiation; at 10 µM; hits give high values", "from_the_text": "Dopamine receptors (DARs) are involved in the etiology and/or therapy of a number of neuropsychiatric and endocrine disorders. For instance, all receptor-based antiparkinsonian drugs work via stimulating the D1 DAR subtype whereas all FDA-approved antipsychotic agents are antagonists of this receptor. […] There are three different types of allosteric modulators that we are seeking, two of which will stimulate or augment receptor signaling, allosteric agonists and potentiators, while the third, allosteric antagonists, will attenuate receptor signaling. The present primary screening assay measures compound potentiation of an EC20 dopamine response by tracking calcium flux in a […], inducible Hek293 Trex D1 cell line.\nNIH Chemical Genomics Center [NCGC]\nNIH Molecular Libraries Probe Centers Network [MLPCN]\nAssay Submitter (PI): David Sibley\nFreshly passaged cells are plated in 1536 well black, clear bottom plates at a density of 4000 cells/well in 3 ul of complete media containing 1x tetracycline inducer. After an overnight incubation at 30 C in 5% CO2, cells are loaded with 2 ul of the no wash Calcium Assay Kit (ABD Bioquest) and incubated at room temperature for 30 to 90 minutes. A 10 cycle (1 second/cycle) baseline measurement is taken and then the FDSS online 1536 pintool delivers 23 nl of compound library (as well as dopamine controls) to the plate. The plate is measured for kinetically at 1 cycle/sec for 180 seconds and is considered to be the agonist portion of the assay (eg, compounds which activate a positive calcium response during this portion are flagged as potential agonists). Following the 180 second read, 1 ul of an EC20 of dopamine is delivered by an onboard pipette head. Measurements are taken kinetically for an additional 180 seconds."}
{"smiles": "CN(C)C1(CNC(=O)c2ccc(Cl)c(S(N)(=O)=O)c2)CCCCC1", "potentiation": "inactive: -2.1%"}
{"smiles": "O=P(Nc1ccccn1)(c1ccc(Br)cc1)c1ccc(Br)cc1", "potentiation": "inactive: 7.09%"}
{"smiles": "C[C@H]1OP(=O)(Oc2ccccc2)[C@H](O)[C@H](O)[C@H]1N=[N+]=[N-]", "note": "(stereo partly drawn)", "potentiation": "inactive: -6.5%"}
{"smiles": "O=P(Nc1nc2ccccc2s1)(c1ccccc1)c1ccccc1", "potentiation": "inactive: -1.45%"}
{"smiles": "CC(=O)NC(SC(=S)N(C)C)C(Cl)(Cl)Cl", "note": "(stereo not drawn)", "potentiation": "inactive: -0.6%"}
{"smiles": "O=[N+]([O-])c1ncn(CCn2cnc([N+](=O)[O-])n2)n1", "potentiation": "inactive: -6.99%"}
{"smiles": "O=[N+]([O-])c1ccc(O)c(/C=N/Nc2ccc([N+](=O)[O-])cc2[N+](=O)[O-])c1", "potentiation": "inactive: 0.2%"}
{"smiles": "O=[As](O)(c1ccccc1)c1ccc(O)cc1", "potentiation": "inactive: 0.3%"}
{"smiles": "C(Cc1nn[nH]n1)Cc1nn[nH]n1", "potentiation": "inactive: -2.05%"}
{"smiles": "Nc1ccc([As](=O)(O)c2ccc([N+](=O)[O-])cc2)cc1", "potentiation": "inactive: 4.6%"}
{"smiles": "O=C(OC1CN2CCC1CC2)c1cccc(Cl)c1", "note": "(stereo not drawn)", "potentiation": "inactive: 1.4%"}
{"smiles": "O=P(Nc1nccs1)(c1ccccc1)c1ccccc1", "potentiation": "inactive: 12.2%"}
{"smiles": "CC(C)C(=O)NC(Sc1ccccc1)C(Cl)(Cl)Cl", "note": "(stereo not drawn)", "potentiation": "inactive: -13.9%"}
{"smiles": "c1nnnn1CCn1cnnn1", "potentiation": "inactive: -5.85%"}
{"smiles": "CCOc1ccc(C2=NCC(CBr)S2)cc1", "note": "(stereo not drawn)", "potentiation": "inactive: 0.95%"}
{"smiles": "O=P1(Nc2nc3ccc(Cl)cc3s2)COc2ccccc2O1", "note": "(stereo not drawn)", "potentiation": "inactive: -5.15%"}
{"smiles": "CC(C)(C)C(=O)NC(Sc1ccccc1)C(Cl)(Cl)Cl", "note": "(stereo not drawn)", "potentiation": "inactive: -1.5%"}
{"smiles": "CC(=O)c1ccc(N2CC2c2ccncc2)cc1", "note": "(stereo not drawn)", "potentiation": "inactive: 17.1%"}
{"smiles": "C[C@H]1OP(=O)(Oc2ccccc2)C[C@@H]2O[C@@H]21", "note": "(stereo partly drawn)", "potentiation": "inactive: -4.6%"}
{"smiles": "C[C@@H]1C=CCP(=O)(Oc2ccccc2)O1", "note": "(stereo partly drawn)", "potentiation": "inactive: -7%"}
{"smiles": "Cc1ccccc1CN(C)C(=O)COC(=O)C(O)(c1ccccc1)c1ccccc1", "potentiation": "inactive: -3.75%"}
{"smiles": "CC(=O)Nc1ccc(Oc2c([N+](=O)[O-])cc([N+](=O)[O-])cc2[N+](=O)[O-])cc1", "potentiation": "inactive: -4.4%"}
{"smiles": "CC(=O)Nc1ccc([As](=O)(O)O)c(O)c1", "potentiation": "inactive: 0.05%"}
{"smiles": "O=C(NC1CCS(=O)(=O)C1)NP(=S)(Oc1ccccc1)Oc1ccccc1", "note": "(stereo not drawn)", "potentiation": "inactive: -1.43%"}
{"smiles": "CCNC(=S)/N=C(\\N)N[N+](=O)[O-]", "potentiation": "inactive: 2.43%"}
{"smiles": "Cc1ccc(NP(=O)(Oc2cccc(C)c2)Oc2cccc(C)c2)nc1", "potentiation": "inactive: -5%"}
{"smiles": "CCOC(=O)NC(Sc1ccccc1)C(Cl)(Cl)Cl", "note": "(stereo not drawn)", "potentiation": "inactive: -2.55%"}
{"smiles": "c1ccc(-c2nn[nH]n2)c(-c2nn[nH]n2)c1", "potentiation": "inactive: -2.75%"}
